# Measured affinities in a library of Ab-14 light chain variants

Source: Engelhart et al. 2022 (doi:10.1038/s41597-022-01779-4), MIT Lincoln Laboratory and A-Alpha Bio; data file from the FLAb repository.

Target peptide (SARS-CoV-2 spike, HR2 region): PDVDLGDISGINAS

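Variants in AAYL50 differ from the parent at up to three CDR positions; double and triple changes were sampled at random. AlphaSeq pools MATa yeast showing the antibodies with MATalpha yeast showing the peptide. Binding brings cells together so that they mate, and sequencing counts the barcode pairs among the diploids. Scores were corrected for input abundance and mapped to Kd with protein pairs of known affinity run in the same pool. Mating was done three times.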

Each scFv is VH, the linker GGGGSGGGGSGGGGS, VL, as in the parent Ab-14, and differs from it in the CDRs of the light chain only.
VH: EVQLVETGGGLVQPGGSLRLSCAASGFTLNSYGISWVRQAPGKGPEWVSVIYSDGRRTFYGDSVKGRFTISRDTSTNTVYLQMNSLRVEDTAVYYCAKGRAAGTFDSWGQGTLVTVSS
VL: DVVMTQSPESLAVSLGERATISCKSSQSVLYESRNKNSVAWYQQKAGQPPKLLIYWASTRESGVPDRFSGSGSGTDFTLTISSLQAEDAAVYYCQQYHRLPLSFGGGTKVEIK

Variants are written as CDR1, CDR2 and CDR3 of the light chain (limits as in the source). Parent: KSSQSVLYESRNKNSVA, WASTRES, QQYHRLPLS. The Kd shown is the geometric mean over detected replicates; a lower Kd is a better binder. An entry "nd" has no value in the source: the pair was not observed among the diploids in any replicate. This suggests poor binding but is not conclusive. As a blank, each scFv also met three strains without target: over library AAYL50, 18% of these pairings were detected, typically at 15 µM and seldom below 970 nM. The control count says in how many pairings with the empty strains this scFv gave a signal. For reference, the parent read 4.4 nM as the reference entry and 48 nM as a member of this library.

KSSQSVLYESRMKNSVA / WASTEES / QQYDRLPLS: 34 µM (2 of 3 replicates; controls 5 of 9).
QSSQSVLYESRNKNSVA / WASTHES / QQYHRLPLD: 7.7 µM (1 of 3 replicates; controls 1 of 9).
KSSQSVLYEWRNKNSVA / WRSTRES / MQYHRLPLS: nd (0 of 3 replicates; controls 1 of 9).
KSSISVRYESRNKNSVA / WASTLES / QQYHRLPLS: 200 nM (3 of 3 replicates; controls 1 of 9).
KSSQSVLYESRNKNGVA / WASTREG / QQYHPLPLS: 3.8 µM (1 of 3 replicates; controls 1 of 9).
KSSQSVLYESRNKNSVW / WASTRES / QQYHRLPWS: 120 µM (1 of 3 replicates; controls 1 of 9).
KSSQSVTYESRNKNSVA / WAVTRES / QQYARLPLS: 17 nM (3 of 3 replicates; controls 1 of 9).
KSSQSMLYESRNKNRVA / WASTRES / QQYNRLPLS: 87 nM (3 of 3 replicates; controls 0 of 9).
KSSLSVLDESRNKNSLA / WASTRES / QQYHRLPLS: 4.0 nM (3 of 3 replicates; controls 1 of 9).
KSSQSVLYASRNKPSVA / WASTRES / QQYHRLPLE: nd (0 of 3 replicates; controls 0 of 9).
KSSQSVLYESRNKNSVA / WASTRES / RQYWRLPLF: nd (0 of 3 replicates; controls 1 of 9).
KSSQSVLYESRNKNSTI / WASTREA / QQYHRLPLS: nd (0 of 3 replicates; controls 0 of 9).
KSSQSVLYESRNKNSVA / WTSTRES / QQLVRLPLS: 680 nM (3 of 3 replicates; controls 4 of 9).
KWSQSVLYESRNMNSVA / WASTRES / NQYHRLPLS: nd (0 of 3 replicates; controls 1 of 9).
KSSQSVLYESRGKNSVA / WASTDES / QQSHRLPLS: nd (0 of 3 replicates; controls 3 of 9).

The remaining entries, values ahead:

680 nM (3 of 3 replicates; controls 4 of 9): KSSQSVLYESRIKNSVA / WASTRES / QQYHRYPLS.
480 µM (1 of 3 replicates; controls 2 of 9): KSSQSVLVESRNKNSVA / WASTRES / QQYHRLTSS.
21 nM (3 of 3 replicates; controls 1 of 9): KSSQSVLYESRNKNSVA / WASTREW / QQYHRLPLK.
35 µM (1 of 3 replicates; controls 2 of 9): KSQQSVLYESRNKNSVI / TASTRES / QQYHRLPLS.
19 µM (1 of 3 replicates; controls 0 of 9): KSSQSVLYESRNKISVA / WASTKES / QQYHILPLS.
1.5 µM (3 of 3 replicates; controls 0 of 9): KSSQGVLYESREKNSVA / WASTRES / QQYRRLPLS.
nd (0 of 3 replicates; controls 0 of 9): KSSQSVLYESRNKNSVA / WALTRES / QQYHRGPLN.
56 nM (3 of 3 replicates; controls 1 of 9): KSSQSVLYESRNFNSVA / WAGTREL / QQYHRLPLS.
27 µM (2 of 3 replicates; controls 3 of 9): KSSQKVLYESRNKNSVA / TASTEES / QQYHRLPLS.
nd (0 of 3 replicates; controls 0 of 9): PSSQSVLYEMRNKNSVA / WASMRES / QQYHRLPLS.
2.4 nM (3 of 3 replicates; controls 1 of 9): KSSQSVEYLSRNKNSVA / WASTRES / QMYHRLPLS.
nd (0 of 3 replicates; controls 0 of 9): KSSVSMLYESRNKNSVE / WASTRES / QQYHRLPLS.
nd (0 of 3 replicates; controls 3 of 9): KSSQSVLYESRNKNSVA / WISTRES / QQYHRLPLE.
12 nM (3 of 3 replicates; controls 1 of 9): NSSISVLYESRNKNSVA / WASTRES / QQYHRGPLS.
690 nM (1 of 3 replicates; controls 0 of 9): KSSQSVLYNSRNKNSVA / WASTRES / AQYHRLPLS.